Measured values as given in patent US20140314784A1.

By UniProt entry, the sequences of proteins in these tests, tags left out.
UniProt P70658, whole entry: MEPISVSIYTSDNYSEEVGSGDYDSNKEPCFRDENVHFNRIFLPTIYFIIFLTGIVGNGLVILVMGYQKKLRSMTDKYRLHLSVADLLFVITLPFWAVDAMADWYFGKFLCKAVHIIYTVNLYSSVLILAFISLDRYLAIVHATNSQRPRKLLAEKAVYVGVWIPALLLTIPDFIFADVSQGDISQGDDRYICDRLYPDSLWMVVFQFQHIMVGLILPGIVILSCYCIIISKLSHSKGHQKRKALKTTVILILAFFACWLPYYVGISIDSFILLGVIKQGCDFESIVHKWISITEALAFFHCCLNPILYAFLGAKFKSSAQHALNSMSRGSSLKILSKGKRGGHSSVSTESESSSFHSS

Target: mouse CXCR4 (mouse) (UniProt P70658)
Experiment: FMAT, hybridoma supernatant on HEK293T cells transiently overexpressing full-length mouse CXCR4

B1: 5E1 (antibody, V domains shown)
VH: EVQLLESGGGLVQPGGSLRLSCAASGFTFSSFAMNWVRQAPGKGLEWVSAISGSGGNIYYADSVRGRFTISRDNSKNTLYLQMNSLRAEDTAVYYCAKVDRNLGYYHGMDVWGQGTTVTVSS
VL: DIVMTQSPLSLPVTPGEPASISCRSSQSLLHSNGYNYLDWYLQKPGQSPQLLIYLGSNRASGVPDRFSGSGSGSDFTLKISRVEAEDVGVYYCMQALQFTFGPGTKVDIK
Count: 86 | FL1: 1390 | FL1 x count: 119000
